Experimental findings from PubChem BioAssay (Tox21) are described below.

SMILES strings stand for the structures. Several values for one entry are separate records, joined by “and”; a condition that tells them apart may be missing. Equal values may be shown once. Only a part is listed here, and it is no random draw. Inconclusive results are not listed. Activity calls are given as the source filed them. Unless noted, the call rests on the fitted dose curve; in most records, active means well fitted curve in the direction sought with a large enough effect in the repeat runs; inconclusive means weak or mixed curves; inactive means no such curve, though single readings can be large; an effect the other way counts as inactive or inconclusive.

Assay [1] can be described thus: qHTS assay for small molecules that induce genotoxicity in human embryonic kidney cells expressing luciferase-tagged ATAD5 - cell viability (AID 651634; calls by dose curve; further: nearly all actives have a fitted effect of over 25% in size). The gist of the method: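 HEK293T cells carrying luciferase-tagged ATAD5, 2,000 cells/well, exposed to compound for 15.5 hr at 37C. Viability read as live-cell protease activity by CellTiter-Fluor fluorescence after 30 min at 37C.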
On the technique in general: Quantitative high-throughput screening tests each substance at several concentrations.

A short description of assay [2]: qHTS assay for small molecule disruptors of the mitochondrial membrane potential - cell viability (AID 720634; calls by dose curve;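 further: human HepG2 liver cancer cells; nearly all actives have a fitted effect of over 20% in size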). The gist of the method:
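HepG2 cells, 2,000 per well, attached overnight, then treated 1 hr at 37 C, 5% CO2. Viability read as ATP by CellTiter-Glo luminescence after 30 min at room temperature. Read in the same wells as the m-MPI membrane-potential dye assay.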

The nature of assay [3]: qHTS assay for small molecule disruptors of the mitochondrial membrane potential (AID 720635). Further: potency means the concentration at half of the fitted maximal effect.
Assay [4] in a line: qHTS assay to test for compound auto fluorescence at 590 nm (red) in HepG2 cells (AID 720674). The following applies: HepG2 autofluorescence, red 540/590 nm, 1 h. In short, it runs like this: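 HepG2 cells, 2,000 per well in MEM with 10% FBS, attached overnight at 37 C, then got 23 nL compound or DMSO. After 1 hr at 37 C, 5% CO2, red fluorescence was read at 540/590 nm against Rose Bengal sodium as reference.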

Assay [5] is described as follows: qHTS assay to test for compound auto fluorescence at 535 nm (green) in HepG2 cells (AID 720675). The following applies: green autofluorescence 485/535 nm, 1 h.
Assay [6] is described as follows: qHTS assay to test for compound auto fluorescence at 460 nm (blue) in HEK293 cells (AID 720678). The note with it: blue autofluorescence 405/460 nm. In short, it runs like this:
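Measured: blue fluorescence (Ex 405/Em 460 nm) of compound-treated HEK293 cells, incubated overnight at 37C with 5% CO2 and scaled to triamterene equivalents.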

A short description of assay [7]: qHTS assay to test for compound auto fluorescence at 590 nm (red) in HEK293 cells (AID 720679). The following applies: red autofluorescence 540/590 nm. In short, it runs like this: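 Using HEK293 cells at 2,000 per well, the screen added 23 nL of each compound after cell attachment and incubated overnight (37C, 5% CO2). The plate reader then captured red-label fluorescence, Ex/Em 540/590nm.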

The nature of assay [8]: qHTS assay to test for compound auto fluorescence at 535 nm (green) in HEK293 cells (AID 720680). The following applies: green autofluorescence 485/535 nm.
A short description of assay [9]: qHTS assay to test for compound auto fluorescence at 535 nm (green) in HEK293 cell free culture (AID 720682). The following applies: cell-free medium, green autofluorescence 485/535 nm, stronger effect = higher value. The gist of the method:
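Using fluorescein as calibrant, autofluorescence was quantified at 485/535 nm in cell-free DMEM containing 10% FBS after pintool addition of compound or vehicle.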

Assay [10] in a line: qHTS assay to test for compound auto fluorescence at 590 nm (red) in HEK293 cell free culture (AID 720683). The note with it: cell-free medium autofluorescence, Ex540/Em590 red. In short, it runs like this:
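Cell-free wells of DMEM with 10% FBS received compound, and intrinsic fluorescence was read at excitation/emission 540/590 nm. Values expressed as equivalence to Rose Bengal sodium.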

The mark [11] stands for this setting: at 91.3 µM (top of the series) unless noted.
On the % scale 0 is the no-effect control and ±100 the full control effect.

As to `CCNC(C)Cc1ccc2c(c1)OCO2` (stereo not drawn), the Potency result in assay [1], in assay [2] and in [3] was “inactive” in each case. Moreover, the fluorescence, relative to Rose Bengal in assay [4] (setting [11]) is inactive: 0.244% [at 95.7 µM]. Moreover, the fluorescence, % of fluorescein control in [5] (setting [11]) is inactive: 0.0123% [at 95.7 µM]. For the same compound, in [6] (setting [11]), the fluorescence, % of triamterene is inactive: -0.0733% [at 95.7 µM]. Also, the fluorescence, % of fluorescent control in assay [7] (setting [11]) was inactive: 0% [at 95.7 µM]; in [10] (setting [11]), inactive: 0.425% [at 95.7 µM]. Moreover, in assay [8] (setting [11]), the fluorescence, % of fluorescein is inactive: -0.0147% [at 95.7 µM]. Besides, the activity change in [9] (setting [11]) is inactive: -0.0076% [at 95.7 µM].
For `CCCCCCCCCCCCCC[P+](CCCCCC)(CCCCCC)CCCCCC`, the Potency in [3] is active: 0.272 µM. Besides, the fluorescence, relative to Rose Bengal in [4] (setting [11]) was inactive: -0.249%. For the same compound, the fluorescence, % of fluorescein control in [5] (setting [11]) was inactive: 0.0081%. For the same compound, the fluorescence, % of triamterene in [6] (setting [11]) was inactive: -0.071%. Besides, the results for the fluorescence, % of fluorescent control in assay [7] (setting [11]) and in assay [10] (setting [11]) were inactive: 0.084% and inactive: 0.0294%, respectively. Further, in [8] (setting [11]), the fluorescence, % of fluorescein is inactive: 0.0033%. Moreover, in assay [9] (setting [11]), the activity change is inactive: -0.0518%.
For the compound `NC(=O)Nc1ccc([As](=O)(O)O)cc1`, the Potency entry in assay [1] and in assay [3] was “inactive” in each case. Further, the values for the fluorescence, relative to Rose Bengal in assay [4] (at 46 µM (top of the series)) and in [4] (at 91.3 µM (top of the series)) were inactive: -0.007% and inactive: 0.0908%, respectively. The fluorescence, % of fluorescein control was inactive: 0.0833% in assay [5] (at 46 µM (top of the series)) and inactive: 0.118% in assay [5] (at 91.3 µM (top of the series)). Moreover, the fluorescence, % of triamterene is inactive: -0.138% in [6] (at 46 µM (top of the series)) and inactive: 0.0092% in [6] (at 91.3 µM (top of the series)). Besides, the fluorescence, % of fluorescent control was inactive: -0.077% in assay [7] (at 46 µM (top of the series)), inactive: 0.529% in assay [7] (at 91.3 µM (top of the series)), inactive: -0.18% in [10] (at 46 µM (top of the series)) and inactive: -0.128% in assay [10] (at 91.3 µM (top of the series)). Also, the fluorescence, % of fluorescein in [8] (at 46 µM (top of the series)) was inactive: -0.213%; in assay [8] (at 91.3 µM (top of the series)), inactive: 0.127%. The activity change in [9] (at 46 µM (top of the series)) was inactive: -0.383%; in assay [9] (at 91.3 µM (top of the series)), inactive: 0.0191%.
Consider `O=[P+](Oc1ccccc1)Oc1ccccc1`, for which the Potency result in assay [1], in assay [2] and in assay [3] was “inactive” in each case. Moreover, the fluorescence, relative to Rose Bengal in assay [4] (setting [11]) was inactive: -0.175%. In addition, in assay [5] (setting [11]), the fluorescence, % of fluorescein control was inactive: 0.0016%. Further, the fluorescence, % of triamterene in assay [6] (setting [11]) is inactive: -0.288%. The fluorescence, % of fluorescent control in [7] (setting [11]) is inactive: -0.504%; in assay [10] (setting [11]), inactive: -0.282%. In addition, the fluorescence, % of fluorescein in assay [8] (setting [11]) is inactive: -0.02%. Also, the activity change in [9] (setting [11]) was inactive: -0.0151%.
For the compound `CCCCO[P+](=O)OCCCC`, the Potency entry in assay [1], in [2] and in [3] was “inactive” in each case. In addition, in [4] (setting [11]), the fluorescence, relative to Rose Bengal was inactive: -0.154% and inactive: -0.173%. The fluorescence, % of fluorescein control in assay [5] (setting [11]) was inactive: -0.0242% and inactive: 0.032%. The fluorescence, % of triamterene in assay [6] (setting [11]) is inactive: -0.0037% and inactive: -0.132%. Moreover, the fluorescence, % of fluorescent control in assay [7] (setting [11]) was inactive: 0.062% and inactive: 0.123%; in assay [10] (setting [11]), inactive: 0.511% and inactive: 0.0049%. Also, the fluorescence, % of fluorescein in assay [8] (setting [11]) is inactive: -0.0131% and inactive: 0.0112%. Besides, the activity change in [9] (setting [11]) is inactive: 0.0442% and inactive: 0.041%.
For the compound `CCOC(=O)Cl`, the Potency result in [1] and in assay [2] was “inactive” throughout. Further, the fluorescence, relative to Rose Bengal in assay [4] (setting [11]) was inactive: 0.21%. The fluorescence, % of fluorescein control in [5] (setting [11]) was inactive: -0.0028%. The fluorescence, % of triamterene in [6] (setting [11]) is inactive: -0.212%. Further, the results for the fluorescence, % of fluorescent control in assay [7] (setting [11]) and in [10] (setting [11]) were inactive: 0.0814% and inactive: -0.101%, respectively. In [8] (setting [11]), the fluorescence, % of fluorescein was inactive: -0.0064%. Besides, the activity change in assay [9] (setting [11]) is inactive: 0.0763%.
